Data reported in patent US7041681B2, “Compounds as opioid receptor modulators” (Janssen Pharmaceutica N.V., priority 2002, dated 2006).

By UniProt entry, the sequences of proteins in these tests, tags left out.
UniProt P33535, whole entry: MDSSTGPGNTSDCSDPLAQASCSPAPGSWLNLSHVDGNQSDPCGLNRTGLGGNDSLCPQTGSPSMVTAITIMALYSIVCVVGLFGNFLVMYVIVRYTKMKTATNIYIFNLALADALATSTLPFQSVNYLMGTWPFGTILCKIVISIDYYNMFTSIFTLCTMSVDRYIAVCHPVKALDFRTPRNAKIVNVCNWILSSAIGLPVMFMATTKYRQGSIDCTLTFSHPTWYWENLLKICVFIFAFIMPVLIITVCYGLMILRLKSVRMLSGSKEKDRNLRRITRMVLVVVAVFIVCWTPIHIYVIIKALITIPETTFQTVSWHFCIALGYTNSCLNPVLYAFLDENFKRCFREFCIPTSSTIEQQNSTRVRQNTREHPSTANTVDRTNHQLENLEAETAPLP
UniProt P33533, whole entry: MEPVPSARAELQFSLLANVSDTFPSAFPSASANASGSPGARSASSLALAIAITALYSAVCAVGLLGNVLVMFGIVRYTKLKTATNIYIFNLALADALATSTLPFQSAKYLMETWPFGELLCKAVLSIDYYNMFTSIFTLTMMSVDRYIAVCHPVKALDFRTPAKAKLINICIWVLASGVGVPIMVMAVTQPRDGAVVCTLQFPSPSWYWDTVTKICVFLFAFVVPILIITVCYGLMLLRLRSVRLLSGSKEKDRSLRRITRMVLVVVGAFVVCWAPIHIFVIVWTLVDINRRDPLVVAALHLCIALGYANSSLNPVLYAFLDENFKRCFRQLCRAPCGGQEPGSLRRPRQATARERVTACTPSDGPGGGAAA

Key:
mu opioid receptor = mu opioid receptor (Rattus norvegicus, UniProt P33535); assay: Rat Brain mu Opioid Receptor Binding Assay; conditions: read-out: μ-opioid binding (Ki), rat forebrain membranes, ~0.8 nM [3H]DAMGO, 25° C., 2.5 h
Description: (§1) Male, Wistar rats (150–250 g, VAF, Charles River, Kingston, N.Y.) are killed by cervical dislocation, and their brains removed and placed immediately in ice cold Tris HCl buffer (50 mM, pH 7.4). The forebrains are separated from the remainder of the brain by a coronal transection, beginning dorsally at the colliculi and passing ventrally through the midbrain-pontine junction. After dissection, the forebrains are homogenized in Tris buffer in a Teflon®-glass homogenizer. The homogenize is diluted to a concentration of 1 g of forebrain tissue per 80 mL Tris and centrifuged at 39,000×g for 10 min. The pellet is resuspended in the same volume of Tris buffer containing 5 mM MgCl2 with several brief pulses from a Polytron homogenizer. This particulate preparation is used for the mu-opioid binding assays. Following incubation with the mu selective peptide ligand ˜0.8 nM [^3H]DAMGO at 25° C. for 2.5 h in a 96-well plate with total 1 ml, the plate contents are filtered through Wallac filtermat B sheets on a Tomtec 96-well harvester. The filters are rinsed three times with 2 mL of 10 mM HEPES (pH7.4), and dried in a microwave oven 1:45 min twice. To each sample area 2×40 μl of Betaplate Scint scintillation fluid (LKB) is added and analyzed on a LKB (Wallac) 1205 BetaPlate liquid scintillation counter.
(§2) The data are used to calculate either the % inhibition compared to control binding (when only a single concentration of test compound is evaluated) or a Ki value (when a range of concentrations is tested). % inhibition is calculated as: [(total dpm-test compound dpm dpm)/(total dpm-nonspecific dpm)]*100. Kd and Ki values were calculated using GraphPad PRISM data analysis program.

delta opioid receptor = delta opioid receptor (Rattus norvegicus, UniProt P33533); assay: Rat Brain Delta Opioid Receptor Binding Assay; conditions: read-out: δ-opioid binding (Ki), rat forebrain membranes, ~4 nM [3H]DPDPE, 25° C., 2.5 h
Description: as §1, with “delta opioid” for “mu-opioid”, “delta” for “mu”, “˜4” for “˜0.8”, “[^3H]DPDPE” for “[^3H]DAMGO”, “total volume of” for “total”
as §2

| SMILES | Ki (mu opioid receptor) [nM] | Ki (delta opioid receptor) [nM] | Ki (mu opioid receptor; tested form: TFA) [nM] | Ki (delta opioid receptor; tested form: TFA) [nM] |
| --- | --- | --- | --- | --- |
| CCNC(=O)c1ccc(C[C@H](N)C(=O)N2Cc3ccccc3C[C@H]2c2nc(-c3ccccc3)c[nH]2)cc1 | 6.5 | 1.7 | – | – |
| Cc1[nH]c([C@@H]2Cc3ccccc3CN2C(=O)[C@@H](N)Cc2ccncc2)nc1-c1ccccc1 | 11400 | 208 | – | – |
| Cc1[nH]c([C@@H]2Cc3ccccc3CN2C(=O)[C@H](Cc2ccc(O)cc2)N(C)C)nc1-c1ccccc1 | 5320 | 60.9 | – | – |
| CC(=O)Oc1cc(C)c(C[C@H](N)C(=O)N2CCCCC2c2ncc(-c3ccccc3)[nH]2)c(C)c1 (stereo partly drawn) | – | – | 0.16 | 6.7 |
| NC(=O)C(Cc1ccccc1)NC(=O)c1[nH]c([C@@H]2Cc3ccccc3CN2C(=O)[C@@H](N)Cc2ccc(O)cc2)nc1-c1ccccc1 (stereo partly drawn) | 922 | 6 | – | – |
| Cc1cc(OC(=O)C(C)(C)C)cc(C)c1C[C@H](N)C(=O)N1CCCC[C@H]1c1nc(-c2ccccc2)c[nH]1 | 0.17 | 11.9 | – | – |

Read-outs that look alike come from different tables or passages of the source.
